Test results taken from publication PMC11986975, “A Cdk5 inhibitor restores cognitive function and alleviates type 2 diabetes in mice” (iScience, 2025).

Amino acid sequences for entries named in this document (tags omitted). Residues count along the entry.
UniProt Q00535, whole entry: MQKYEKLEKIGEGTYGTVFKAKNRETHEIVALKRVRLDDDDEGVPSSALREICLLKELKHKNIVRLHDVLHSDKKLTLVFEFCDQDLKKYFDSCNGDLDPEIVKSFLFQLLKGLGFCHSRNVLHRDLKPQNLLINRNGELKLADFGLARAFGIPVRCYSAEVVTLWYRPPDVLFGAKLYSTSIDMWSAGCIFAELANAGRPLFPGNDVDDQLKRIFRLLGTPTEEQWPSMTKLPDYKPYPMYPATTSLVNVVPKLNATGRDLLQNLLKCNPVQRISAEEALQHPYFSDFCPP
UniProt Q15078, whole entry partner: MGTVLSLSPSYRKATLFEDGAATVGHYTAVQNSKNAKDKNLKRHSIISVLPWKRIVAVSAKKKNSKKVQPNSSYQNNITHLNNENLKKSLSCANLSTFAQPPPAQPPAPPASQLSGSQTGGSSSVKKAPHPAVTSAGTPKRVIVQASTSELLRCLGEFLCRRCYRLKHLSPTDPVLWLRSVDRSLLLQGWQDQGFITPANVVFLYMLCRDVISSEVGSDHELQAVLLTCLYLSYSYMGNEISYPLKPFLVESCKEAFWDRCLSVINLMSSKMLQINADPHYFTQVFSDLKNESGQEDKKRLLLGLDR
UniProt Q15078, 99-307 partner limits assumed: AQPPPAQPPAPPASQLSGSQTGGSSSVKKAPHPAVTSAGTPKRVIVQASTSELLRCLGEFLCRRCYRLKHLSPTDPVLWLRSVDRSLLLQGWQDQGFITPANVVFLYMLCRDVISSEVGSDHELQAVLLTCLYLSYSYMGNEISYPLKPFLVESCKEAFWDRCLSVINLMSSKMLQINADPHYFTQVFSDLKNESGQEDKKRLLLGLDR

What was measured:
Cdk5/p35 = Cdk5/p35 (Homo sapiens, UniProt Q00535); assay: Cdk5 kinase assay (ADP-Glo) with Cdk5/p35 complex; conditions: read-out: IC50 (nM) (Cdk5/p35); 10 μM ATP, histone substrate, inhibitor 0-100 nM
Experimental: (§1) The test tube Cdk5 Kinase assay was performed utilizing Cdk5/p35 and Cdk5/p25 complexes as kinases, following the modified procedure outlined in a previous study,[52] using a Promega ADP-GloTM Kinase Assay kit. The reaction was carried out with 10 μM ATP and 2 μg of histone as the substrate for Cdk5 complexes. To study the inhibition patterns, 19 Cdk5 inhibitors (BLINK1-19) identified through molecular docking were added to the Cdk5 kinase reaction in increasing concentrations ranging from 0 to 100 nM. The IC50 (half-maximal inhibitory concentration) values of all the inhibitors were calculated based on Log(inhibitor) vs. normalized response using GraphPad software.

Cdk5/p25 = Cdk5/p25 (Homo sapiens, UniProt Q00535); assay: Cdk5 kinase assay (ADP-Glo) with Cdk5/p25 complex; conditions: read-out: IC50 (nM) Cdk5/p25; 10 μM ATP, histone substrate, inhibitor 0-100 nM
Experimental: as §1

SMILES | IC50 (Cdk5/p35) [nM] | IC50 (Cdk5/p25) [nM]
O=c1oc2ccccc2cc1-c1csc(Cc2nc(-c3ccc(Cl)cc3)cs2)n1 | 47.8 | 88.4
O=C(NCCO)c1cccc(Nc2nc(-c3ccccc3)c3cc(Cl)ccc3n2)c1 | 34.8 | 22.9
